Source: patent publication US7517889B2, “2,6-substituted-4-monosubstitutedamino-pyrimidine as prostaglandin D2 receptor antagonists” (Aventis Pharmaceuticals, Inc., priority 2004, dated 2009)
Counter-ions that a name gives are not always drawn.

Molecular target: T1, DP receptor (Homo sapiens, UniProt Q13258)
T1 construct: the human cell line LS174T, which expresses the endogenous DP receptor; endogenous in cells; host or cells: LS174T human cell line
T1 sequence (Q13258 1-359): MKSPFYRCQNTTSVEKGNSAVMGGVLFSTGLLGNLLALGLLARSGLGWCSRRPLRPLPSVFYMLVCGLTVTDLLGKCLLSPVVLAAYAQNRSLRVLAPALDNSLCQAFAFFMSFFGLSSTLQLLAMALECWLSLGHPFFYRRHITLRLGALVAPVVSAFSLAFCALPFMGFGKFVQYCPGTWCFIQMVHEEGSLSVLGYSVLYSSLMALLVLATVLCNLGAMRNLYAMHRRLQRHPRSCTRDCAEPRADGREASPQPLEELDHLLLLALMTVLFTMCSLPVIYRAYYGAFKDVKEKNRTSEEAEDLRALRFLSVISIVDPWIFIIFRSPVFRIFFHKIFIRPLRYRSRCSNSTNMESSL
Experiment: SPA cAMP assay in human LS174 T cells (human DP functional assay)
Assay type: cell-based
Protocol: The inhibitory effects of the compounds according to the invention are assessed in a human DP functional assay. A cAMP assay is employed using the human cell line LS174T, which expresses the endogenous DP receptor.
Protocol for SPA cAMP Assay in Human LS174 T Cells
• 1) Add equal volumes of tracer, antiserum and SPA anti-rabbit reagent to a bottle, ensuring that a sufficient volume of this mixture is prepared for the desired number of wells (150 μL/well). • 2) Mix thoroughly. • 3) This immunoreagent solution should be freshly prepared before each assay and not re-used.
Add 50 μL of […] IBMX into 100 mL PBS to make a final concentration of 100 μM and sonicate at 30° C. for 20 minutes.
Before each assay, it is freshly prepared. Add 3 μL of 10 mM stock solution to 20 mL DMSO, mix it thoroughly, and transfer 10 mL to 40 mL PBS.
Compound dilution is carried out in Biomex 2000 (Beckman) using Method 1_cAMP DP 11 points.
5 μL of each compound from the 10 mM stock compound plates is transferred to the wells of a 96-well plate respectively as below.
Fill the plate with 45 μL of DMSO except column 7 is filled with 28 μL DMSO. Pipette column 1 thoroughly, and transfer 12 μL into column 7 parallel. […]
The cAMP concentrations (pmol/mL) of unknown samples are calculated from a standard curve of cAMP versus CPM. % inhibition is calculated using the following formula: […]

| Compound | IC50 [nM] |
| --- | --- |
| COc1nc(NCCc2ccc(Cl)cc2Cl)cc(-c2cccc(C(F)(F)c3nnn[nH]3)c2)n1 [Example 82(c), [2-(2,4-Dichloro-phenyl)-ethyl]-(6-{3-[difluoro-(1H-tetrazol-5-yl)-methyl]-phenyl}-2-methoxy-pyrimidin-4-yl)-amine] | 0.1 |
| COc1ccc(CCNc2cc(-c3cccc(-c4nnn[nH]4)c3)nc(OC)n2)cc1 [Example 54, [2-(4-Methoxy-phenyl)-ethyl]-{2-methoxy-6-[3-(1H-tetrazol-5-yl)-phenyl]-pyrimidin-4-yl}-amine, sodium salt] | 0.4 |
